According to patent publication US8916132B2, “Benzimidazole-derived compounds use as markers in the case of neurodegenerative diseases” (Servicios Cientificos Neuroinnovation Ltda, priority 2008, dated 2014):

Assay: Partition coefficient octanol / pH 7.4 tampon
Settings: partition coefficient in relation to ability to cross the HEB
Protocol: The analyzed parameters were: specific permeability (Sp), this is an indicator of the compound's ability to cross the hematoencephalic barrier (HEB) by passive diffusion, and the partition coefficient (LogP), which corresponds to the partition coefficient of the compound between Octanol and the pH 7.4 phosphate tampon, which is a predictive element for the compound's penetration of the HEB.
Briefly, the partition coefficient (log Po/w) was determined in a pH 7.4 tampon solution, adjusted with 0.1 M sodium hydroxide. The organic phase utilized octanol saturated with the pH 7.4 tampon solution. A 1 mg/mL solution of the drug in methanol was prepared. Dilutions with concentrations ranging from 0.02 to 0.4 mg/mL were prepared from these solutions. Then […] portions were taken from each of these previously prepared stock solutions in 25 mL volumetric flasks, with the volume completed with the tampon pH 7.4. 25 ml of octanol where then measured and placed in three decantation funnels, with the previously prepared solutions added to each, mixing both phases by vigorous agitation during two minutes. […] Both phases are separated once equilibrium had been reached. The aqueous phase was centrifuged during 3 minutes to ensure complete separation of the phases. […] The quantification was carried out with a UVN spectrophotometer.

Q: With `Cc1c(OCC(F)(F)F)ccnc1C[S+]([O-])c1nc2ccccc2[nH]1` (stereo not shown) [Lansoprazole] as the molecule, how does the “CNS LogP” value read?
A: The value was “Favorable”.
